Values of other authors as cited in paper PMC5514212, “The interactions of metal cations and oxyanions with protein tyrosine phosphatase 1B” (Biometals, 2017).

Biological target: PTP1B
Conditions: ref Huyer et al. [1997]; cited from earlier work

[O]=[V]([O-])([O-])[O-] [vanadate, reference compound]
Ki: 380 nM
